Experimental data reported in ChEMBL document CHEMBL3734696, “Discovery of novel 5-fluoro-N(2),N(4)-diphenylpyrimidine-2,4-diamines as potent inhibitors against CDK2 and CDK9” (Medchemcomm, 2015).

By UniProt entry, the sequences of proteins in these tests, tags left out.
UniProt P50750, whole entry: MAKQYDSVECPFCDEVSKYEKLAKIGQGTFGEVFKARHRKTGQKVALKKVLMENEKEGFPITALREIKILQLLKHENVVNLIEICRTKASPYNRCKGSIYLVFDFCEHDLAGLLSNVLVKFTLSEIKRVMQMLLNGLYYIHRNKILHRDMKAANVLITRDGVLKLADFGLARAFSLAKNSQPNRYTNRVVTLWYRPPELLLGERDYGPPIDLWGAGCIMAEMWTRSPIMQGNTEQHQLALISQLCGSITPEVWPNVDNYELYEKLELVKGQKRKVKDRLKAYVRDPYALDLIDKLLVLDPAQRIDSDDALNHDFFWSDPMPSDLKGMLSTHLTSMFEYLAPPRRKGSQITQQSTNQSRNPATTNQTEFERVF

Columns and labels:
[1] = target: CDK9/cyclin T1 (Homo sapiens, UniProt P50750); test: Inhibition of CDK9/Cyclin-T1 (unknown origin) using UlightCFFKNIVTPRTPPPSQGK-amide substrate after 90 mins by […]; format: protein-complex assay
[2] = test system: A549; test: Antiproliferative activity against human A549 cells after 3 days by SRB method; format: functional; details: A549, 72 h
How it was run: (§1)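 Cell lines kept in RPMI-1640 with 25 mM HEPES, 0.25% sodium bicarbonate, 10% FBS and kanamycin. Freshly trypsinized cells seeded at 1500–7500 per well with compound added from DMSO-diluted stock. After 3 days, attached cells fixed with cold 50% TCA, stained with 0.4% SRB, and bound dye solubilized. Absorbance read at 562 nm. Value is the mean of three independent determinations.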

[3] = Antiproliferative activity against human DU145 cells after 3 days by SRB method; format: functional; details: DU-145, 72 h; how it was run: as §1
[4] = Antiproliferative activity against human KBVIN cells after 3 days by SRB method; format: functional; details: 72 h; how it was run: as §1
[5] = target: Cyclin-dependent kinase 2/cyclin E1 (Homo sapiens, UniProt P24941); test: Inhibition of CDK2/cyclin E1 (unknown origin) expressed in Sf9 insect cells using UlightCFFKNIVTPRTPPPSQGK-amide substrate after 15 mins by […]

## CN(C)CC(=O)Nc1cccc(Nc2ncc(F)c(Nc3ccc(F)cc3)n2)c1
[1]
  pIC50: 6.11
[2]
  GI50: 1180 nM
[3]
  GI50: 1210 nM
[4]
  GI50: 1810 nM
[5]
  pIC50: 5.77

pIC50: −log10 of the molar value.
